{
  "sequences": {"note": "By UniProt entry, the sequences of proteins in these tests, tags left out. Where a name states a change or a piece, a line headed by the entry shows the natural chain unless it says otherwise. Chains listed by the source or under a name are the forms on record and can include a tag or linker.", "UniProt Q93009, with tags, fused parts or gaps limits assumed, stated change not applied": "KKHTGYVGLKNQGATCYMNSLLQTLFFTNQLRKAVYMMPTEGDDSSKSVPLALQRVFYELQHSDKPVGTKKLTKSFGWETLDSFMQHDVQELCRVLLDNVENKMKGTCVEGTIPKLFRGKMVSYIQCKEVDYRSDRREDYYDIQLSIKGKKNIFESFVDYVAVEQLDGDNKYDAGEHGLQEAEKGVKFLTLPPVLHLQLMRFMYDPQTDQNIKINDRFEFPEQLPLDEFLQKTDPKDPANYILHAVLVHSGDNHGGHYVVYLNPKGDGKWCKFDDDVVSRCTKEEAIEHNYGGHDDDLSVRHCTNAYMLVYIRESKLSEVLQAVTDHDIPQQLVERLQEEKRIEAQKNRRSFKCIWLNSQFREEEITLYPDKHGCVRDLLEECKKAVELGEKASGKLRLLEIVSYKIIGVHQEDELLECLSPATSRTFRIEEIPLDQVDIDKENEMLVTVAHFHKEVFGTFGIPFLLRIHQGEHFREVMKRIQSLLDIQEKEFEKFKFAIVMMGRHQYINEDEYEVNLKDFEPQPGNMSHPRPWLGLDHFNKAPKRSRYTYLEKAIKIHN"},
  "source": "paper PMC13499021",
  "about": "“Cellular Assays for Dynamic Quantification of Deubiquitinase Activity and Inhibition” (Journal of molecular biology, 2023)",
  "target": "GFPNb^R35Q-USP7 (Homo sapiens, UniProt Q93009)",
  "conditions": "for potency: 7-point dose response, USP7 cell line",
  "data": [
    {"smiles": "CCc1c(-c2ccc3[nH]ncc3c2)cnc(N)c1-c1ccc(O)cc1", "values": [
      {"measurement": "potency", "value": "low micromolar range"}
    ]},
    {"smiles": "CCc1c(-c2ccc(C(=O)NC)nc2)cnc(N)c1-c1ccc(O)cc1", "values": [
      {"measurement": "potency", "value": "low micromolar range"},
      {"measurement": "IC50", "setting": "read-out: cellular IC50, 7-point 4-fold dose response, 24 h of treatment, 293T-UbR-C3 +GFPNbR35Q-USP7, Figure 5D", "value": 3.02, "unit": "µM"}
    ]}
  ]
}
